Data on 48 molecules can be found in PubChem BioAssay AID1259400 (National Center for Advancing Translational Sciences (NCATS), 2018).

Chains of the proteins cited; added tags and fusions are not shown. Lines headed by an entry give the natural chain unless they say otherwise; changes in a name come on top.
UniProt Q9HBX9: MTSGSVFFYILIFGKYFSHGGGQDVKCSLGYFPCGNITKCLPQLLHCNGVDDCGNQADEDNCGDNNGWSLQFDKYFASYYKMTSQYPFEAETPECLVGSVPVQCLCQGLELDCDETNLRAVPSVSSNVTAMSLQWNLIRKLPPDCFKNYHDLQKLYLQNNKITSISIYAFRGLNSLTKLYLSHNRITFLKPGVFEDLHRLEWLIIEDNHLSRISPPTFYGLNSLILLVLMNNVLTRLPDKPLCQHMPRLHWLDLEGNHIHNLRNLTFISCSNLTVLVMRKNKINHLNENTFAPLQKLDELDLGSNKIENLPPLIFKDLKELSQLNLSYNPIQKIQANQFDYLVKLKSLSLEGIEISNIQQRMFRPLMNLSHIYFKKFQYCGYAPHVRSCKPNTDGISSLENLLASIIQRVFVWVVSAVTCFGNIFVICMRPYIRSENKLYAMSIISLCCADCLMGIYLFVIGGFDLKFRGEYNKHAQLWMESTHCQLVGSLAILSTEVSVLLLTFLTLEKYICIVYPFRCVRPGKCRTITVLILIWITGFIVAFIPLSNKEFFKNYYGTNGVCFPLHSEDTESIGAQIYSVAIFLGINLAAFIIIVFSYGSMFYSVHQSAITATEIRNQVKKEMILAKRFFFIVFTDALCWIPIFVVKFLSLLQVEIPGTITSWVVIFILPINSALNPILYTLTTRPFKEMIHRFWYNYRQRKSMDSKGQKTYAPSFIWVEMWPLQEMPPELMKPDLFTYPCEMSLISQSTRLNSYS

Only a part is listed here, and it is no random draw. Active and inactive are the calls of the source.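 The calls were made as follows: active = activity change of -60% or lower, but not beyond a set lower limit; inconclusive = change between -60% and -40%, or beyond the set limit; inactive = change above -40%.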
% is scaled to controls: 0 for no effect and ±100 for the full control effect.

The experiment concerns the target Relaxin receptor 1 (Homo sapiens) (UniProt Q9HBX9). Description: qHTS Assay for Antagonists of the Relaxin Receptor RXFP1. To be noted: HEK293-RXFP1, relaxin-stimulated cAMP HTRF, 30 min; at 57.5 µM; hits give low values. The text has this:
The relaxin hormone is involved in the variety of biological functions in normal tissues and diseases. The role of relaxin is well-established in female reproduction and parturition, mammary gland and endometrial development, maintenance of myometrial quiescence during pregnancy. Relaxin signaling through its G protein-coupled receptor (GPCR) RXFP1 results in ECM remodeling through regulation of collagen deposition, cell invasiveness, proliferation and overall tissue homeostasis. […] Recombinant human relaxin (rhRlx) is currently being tested in clinical trials as a protective agent in congestive heart failure, in treating severe preeclampsia, and as an anti-fibrotic agent in various organs. […] Upon relaxin binding RXFP1 activation leads to the activation of adenylate cyclase (AC) via G?s. cAMP will activate PKA, which phosphorylates many signaling proteins. Thus, detection of cAMP increase is an easy and reliable indication of relaxin receptor activation. To screen for antagonists of the relaxin receptor, a HEK293T cell line stably transfected with RXFP1 was used. RXFP1 activation by relaxin in presence of various concentrations of tested compounds was assayed by changes in cAMP levels as detected with a time-resolved fluorescence energy transfer (TR-FRET) cAMP detection kit.
For the primary screening, we used HTRF(R) (Homogenous Time-Resolved Fluorescence) cAMP HiRange assay (Cisbio Bioassays, 62AM6PEJ). Presence of cAMP in the cell lysate disrupts binding between the Cryptate-labeled anti-cAMP and d2-labeled cAMP pair, leading to a decrease in TR-FRET signal. The libraries were screened at two doses (57microM and 11microM), followed by a confirmation of the hits at 7-point serial dilution in the range of final concentrations [57microM - 78nM]. Data were normalized to the controls for basal activity (buffer only) and 100% activity (5 nM porcine relaxin). The EC50 values were determined from concentration-response data modeled with the standard Hill equation. NCGC Assay Protocol Summary: HiHEK (Hawaiian HEK293 LGR7 stably transfected with human RXFP1) were grown in the following media: DMEM+10%FBS+Pen/Strep + Geneticin (1mg/ml). For the assay, the cells were seeded in DMEM+Pen/Strep (with no serum & selective antibiotics) at 2,100 cells/ 3microl/well with MultiDrop Combi dispenser (Thermo Scientific, Logan, UT) onto white tissue culture treated solid bottom1536-well plates (Greiner #789173-F) and allowed to attach/recover overnight at 37 degrees C, 5% CO2. Next, 23nl/well of compound solutions in DMSO were transferred into wells with a pintool (Kalypsis, San Diego, CA). […] EC80 (relaxin at 50pM final concentration) was dispensed to the rest of the plate except columns 1&2 which were used as a negative control (EC0, buffer only), 1microl/well also. The cells were stimulated by relaxin in the presence of compounds for 30 minutes at 37 degrees C, 5% CO2. The detection reagents were prepared individually by dilution in Lysis buffer (supplied with the assay kit) just prior to dispensing. 1microl/well of cAMP-d2 and 1microl/well anti-cAMP-Eu3+-Cryptate antibodies were added simultaneously with BioRAPTR FRDtrade mark Workstation (Beckman Coulter). The plates were incubated at ambient temperature for 30 minutes and, then, FRET signal was read on Envision plate reader (PerkinElmer, Waltham, MA), at wavelengths 340nm (excitation), 615nm & 665nm (emission of donor and acceptor channels respectively).
With `O=C(OC1CN2CCC1CC2)c1cccc2[nH]cnc12` (stereo not drawn), the activity change, negative = inhibition was inactive: -8.4%.
Next, `CCN(CC)C(=S)SC(NC=O)C(Cl)(Cl)Cl` (stereo not drawn): inactive: 6.34%; `CC(C)NC(=O)NP(=O)(Oc1ccccc1)Oc1ccccc1`: inactive: -24.9%; `COc1cc(C(=O)NCC2(N3CCOCC3)CCCCC2)ccc1OCC(C)C`: inactive: -6.8%.
Next, `O=[N+]([O-])c1ccc(-c2cc([N+](=O)[O-])c(O)c([N+](=O)[O-])c2)cc1`: inactive: -6.55%; `C[As](=O)(O)c1cccc(C(=O)O)c1`: inactive: 2.22%.
As for `O=[As](O)(c1ccc(O)cc1)c1ccccc1O`, the figure is inactive: -10.2%.
In the case of `Cc1ccc(OP(=O)(Nc2ccc([N+](=O)[O-])cn2)Oc2ccc(C)cc2)cc1`, the activity change, negative = inhibition was inactive: 6.5%.
Next, `COc1ccc(N/C(=N/P(=O)(N2CCOCC2)N2CCOCC2)N2CCOCC2)cc1`: inactive: -14.4%; `O=[N+]([O-])c1cc(Oc2ccc([N+](=O)[O-])cc2C(F)(F)F)cc([N+](=O)[O-])c1`: inactive: -2.67%.
For `Cc1cc(=O)[nH]c(N[N+](=O)[O-])n1`, the activity change, negative = inhibition is inactive: -3.89%.
Consider `O=C(OC1CN2CCC1CC2)C12CC3CC(CC(C3)C1)C2` (stereo not drawn), for which the activity change, negative = inhibition is inactive: 0.804%.
As for `Cc1c2c(nc3ccccc13)SC(C(Cl)Cl)C2` (stereo not drawn), the figure is inactive: -13.5%.
Consider `COc1cc(I)ccc1[As](=O)(O)O`, for which the activity change, negative = inhibition was inactive: -7.93%.
As for `COc1ccc2nc(NP(=O)(c3ccccc3)c3ccccc3)sc2c1`, the figure is inactive: -12.7%; as for `O=P1(N(CCCl)CCCl)Nc2ccccc2N1`, inactive: 2.44%.
As to `O=P1(N(CCCl)CCCl)OCCCN1CCCl` (stereo not drawn), the activity change, negative = inhibition is inactive: -1.36%.
As for `CC(C)CC(=O)NC(Sc1ccc(Cl)cc1)C(Cl)(Cl)Cl` (stereo not drawn), the figure is inactive: -29.5%; as for `Nc1cc(N)c2nonc2c1[N+](=O)[O-]`, inactive: 2.36%.
As for `O=C(NC(Sc1ccncn1)C(Cl)(Cl)Cl)c1ccccc1` (stereo not drawn), the figure is inactive: -0.562%.
Turning to `Oc1ccccc1CNc1ccccn1`, the activity change, negative = inhibition was inactive: 5.88%.
As to `NC(=O)c1cc([N+](=O)[O-])cc([N+](=O)[O-])c1N`, the activity change, negative = inhibition was inactive: 5.14%.
Next, `Cc1ccc(N/C(=N/P(=O)(N2CCOCC2)N2CCOCC2)N2CCOCC2)cc1`: inactive: -6.64%.
With `Cc1ccc(OP(=O)(Nc2nccs2)Oc2ccc(C)cc2)cc1`, the activity change, negative = inhibition is inactive: -12.2%.
Next, `COc1ccccc1OP(=O)(Nc1ccc(C)cn1)Oc1ccccc1OC`: inactive: -1.78%; `Clc1ccc(Cl)c(NC2=NCC(CBr)S2)c1` (stereo not drawn): inactive: -8.03%; `CN1CCCC(OC(=O)C(c2ccccc2)c2ccccc2)C1` (stereo not drawn): inactive: 4.03%.
As for `CCN(N=Nc1nonc1N)c1nonc1N`, the figure is inactive: 2.48%; as for `Nc1cccc2ccc([As](=O)(O)O)cc12`, inactive: -0.509%.
Consider `CCCC1OP(N)(=O)OCC1CC` (stereo not drawn), for which the activity change, negative = inhibition was inactive: 4.2%.
`O=C(O)c1ccccc1[As](=O)(O)O`: the activity change, negative = inhibition was inactive: 10.6%.
Next, `CC(=O)Nc1ccc([As](=O)(O)O)cc1`: inactive: -3.06%; `CN(C)P(=O)(N(C)C)n1c(Nc2ccccc2)nnc1-c1ccccc1`: inactive: -13.1%.
Next, `Cc1ccc(NP(=O)(Oc2ccccc2F)Oc2ccccc2F)nc1`: inactive: -10.2%; `CCOP(=O)(Nc1ccccc1)OCC`: inactive: -9.13%.
As for `Cc1cc(SC(NC(=O)c2ccc(F)cc2)C(Cl)(Cl)Cl)ncn1` (stereo not drawn), the figure is inactive: 4.47%; as for `CC(C)(C)C(=O)NC(Sc1ccncn1)C(Cl)(Cl)Cl` (stereo not drawn), inactive: 0.305%.
On to `O=[N+]([O-])c1ncn(CCn2ncnc2[N+](=O)[O-])n1`, for which the activity change, negative = inhibition is inactive: 3.72%.
In the case of `O=[N+]([O-])c1cccc(NC2=NCC(CBr)S2)c1` (stereo not drawn), the activity change, negative = inhibition was inactive: -3.34%.
`COC(=O)C1(C)COP(=O)(Nc2ccccc2)OC1` (stereo not drawn): the activity change, negative = inhibition was inactive: -2.48%.
As for `O=C(O)CNc1ccc([As](=O)(O)O)cc1`, the figure is inactive: 3.29%; as for `O=P1(N(CCCl)CCCl)OCCCS1` (stereo not drawn), inactive: -22%; as for `O=C(Nc1cc([As](=O)(O)O)ccc1O)c1ccccc1`, inactive: 0.241%.
Consider `C[N+]1=C2C=CC=CC=C2SC12C([N+](=O)[O-])=CC([N+](=O)[O-])=C[C-]2[N+](=O)[O-]` (stereo not drawn), for which the activity change, negative = inhibition was active: -60.1%.
Next, `Nc1ccc([As](=O)(O)c2ccc(N)cc2)cc1`: inactive: 12.9%; `CCN(/C(=N/P(=O)(N1CCOCC1)N1CCOCC1)N1CCOCC1)c1ccc(OC)cc1`: inactive: -7.81%; `CN(C)C(=O)OCCc1n(C)cc[n+]1C`: inactive: -2.75%.
Next, `CC(C)=N/N=C(\N)N[N+](=O)[O-]`: inactive: 9.97%.
